Earlier results on one substance are cited in PMC6186450 (Pharmaceutical research, 2018).

For the data set the following is noted: cited from earlier work.

Take “PEG2-IFN: 40 kDa branched polyethylene glycol-conjugated interferon α-2a”: the “reduction of activity by PEGylation” value is 14 fold.
